One molecule from PMC8698692, “Generation of a Novel High-Affinity Antibody Binding to PCSK9 Catalytic Domain with Slow Dissociation Rate by CDR-Grafting, Alanine Scanning and Saturated Site-Directed Mutagenesis for Favorably Treating Hypercholesterolemia” (Biomedicines, 2021) can be followed below.

Protein sequences, listed by entry. Tags and fused reporters are not part of them. Residues count along the entry.
UniProt Q8NBP7, 31-692: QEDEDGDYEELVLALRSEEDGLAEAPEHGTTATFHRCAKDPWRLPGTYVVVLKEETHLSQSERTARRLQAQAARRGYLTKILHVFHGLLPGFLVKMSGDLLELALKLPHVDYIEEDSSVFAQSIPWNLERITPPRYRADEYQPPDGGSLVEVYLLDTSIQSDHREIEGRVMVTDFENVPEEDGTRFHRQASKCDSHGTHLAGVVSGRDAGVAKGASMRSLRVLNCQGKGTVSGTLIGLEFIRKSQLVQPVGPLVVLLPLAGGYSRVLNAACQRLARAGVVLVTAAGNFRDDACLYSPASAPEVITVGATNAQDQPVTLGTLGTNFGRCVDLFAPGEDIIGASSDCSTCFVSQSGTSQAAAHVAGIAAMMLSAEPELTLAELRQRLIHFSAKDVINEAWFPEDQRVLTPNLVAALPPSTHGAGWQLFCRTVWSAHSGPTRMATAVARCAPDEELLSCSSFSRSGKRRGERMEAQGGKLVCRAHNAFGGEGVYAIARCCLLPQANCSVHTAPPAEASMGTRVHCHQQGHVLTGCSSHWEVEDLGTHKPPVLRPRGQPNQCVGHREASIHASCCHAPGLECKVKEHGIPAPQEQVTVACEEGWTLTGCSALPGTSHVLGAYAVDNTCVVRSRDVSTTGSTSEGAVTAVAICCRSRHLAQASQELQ

Test [1] concerns the target T1, human proprotein convertase subtilisin/kexin type 9 (hPCSK9), recombinant (Homo sapiens, UniProt Q8NBP7, biotinylated with a biotinylation kit for the BLI assay only (sites not given)). As to the kind of experiment: cell-based or functional assay.
Test [2] addresses T1, human proprotein convertase …. Description: BLI; ForteBio Octet QKe; biotinylated hPCSK9 (50 μg/mL) immobilised on streptavidin biosensors; 2-fold dilutions of antibody (scFvs 6000-93.75 nM, mAbs 800-12.5 nM), association 300 s or longer, dissociation 600 s in SD buffer (PBS, 0.02% Tween 20, 0.1% BSA, pH 7.4); global fit. Particulars: both partners purified. On the technique in general: In BLI a coated tip is dipped into the sample, and binding shifts an interference pattern.

B1: h5E12-L230G, humanized full-length IgG1 mAb against hPCSK9 (antibody, V domains shown)
VH: QVQLVQSGAEVKKPGASVKVSCKASGYTFTSYWMHWVRQAPGQGLEWMGEINPSNGRTDHSEKFKNRVTMTRDTSTSTVYMELSSLRSEDTAVYYCARFHYDYDYFDYWGQGTLVTVSS
VL: DIVMTQSPSSLSASVGDRVTITCKASRNVGNSVGWYQQKPGKAPKLLIYSASYRYSGVPSRFSGSGSGTDFTLTISSLQPEDFATYYCQQYNRYPGTFGQGTKVEIK
B1: the “reduction in serum LDL-C relative to the model group in mice over-expressing hPCSK9, h5E12-L230G at 1, 3 and 10 mg/kg (5.8%, 30.1%, 36.2%)” value in test [1] was 36.2%. In test [2], the dissociation constant Kd was found to be 1.72 nM, the off-rate constant (koff) came to 4.84e-05 s⁻¹ and the kon turned out to be 28100 M⁻¹ s⁻¹.

The term Kd denotes the equilibrium constant for the complex coming apart. As usually defined, the koff is the first-order rate constant of dissociation. What is called kon is the rate constant with which the complex forms.
